Here are results for 1 substance from US20100068703A1.

This assay has as its target calcium-independent phospholipase A2β with (His)6 tag, purified recombinant from Sf9 cells. Kind of assay: cell-based or functional assay.

Turning to “High purity bovine calmodulin (Calbiochem), calcium-activated (from UniProt P62157 2-149)”, the activity of CaM-inhibited iPLA2β with 1 mol % oleoyl-CoA added, BODIPY-PC fluorescence assay (FIG. 11B) (% of initial activity) was 40; the decrease of lysolipid products of iPLA2β (LysoBODIPY-PC, 16:0-LysoPC, 18:1-LysoPC), measured by ESI-MS (FIG. 11E-G) was determined as 80%; the inhibition of iPLA2β activity with 1-palmitoyl-2-[1-14C]-oleoyl-sn-glycero-3-phosphocholine as substrate (FIG. 11I) was found to be 70%; the inhibition of iPLA2β-catalyzed hydrolysis of BODIPY-PC, real-time fluorescence assay (FIG. 11A) lay within 70 to 80%. Besides, the inhibition of palmitoyl-CoA thioesterase activity of iPLA2β (FIG. 9) came to 10% and the inhibition of phospholipase A2 activity of iPLA2β ([1-14C]-POPC in POPC vesicles, FIG. 9) was 70 to 80%. Moreover, the activity of CaM-inhibited iPLA2β with oleoyl-CoA (10 µM), [14C]-POPC substrate (FIG. 11I) (scale: % of the activity observed with oleoyl-CoA alone) was found to be 75.
